Reference: patent US8097238B2, “Cell targeting conjugates” (Peter MacCallum Cancer Institute, priority 2004, dated 2012)

The chains behind the UniProt entries cited, without tags or fusion partners.
UniProt P02786, whole entry: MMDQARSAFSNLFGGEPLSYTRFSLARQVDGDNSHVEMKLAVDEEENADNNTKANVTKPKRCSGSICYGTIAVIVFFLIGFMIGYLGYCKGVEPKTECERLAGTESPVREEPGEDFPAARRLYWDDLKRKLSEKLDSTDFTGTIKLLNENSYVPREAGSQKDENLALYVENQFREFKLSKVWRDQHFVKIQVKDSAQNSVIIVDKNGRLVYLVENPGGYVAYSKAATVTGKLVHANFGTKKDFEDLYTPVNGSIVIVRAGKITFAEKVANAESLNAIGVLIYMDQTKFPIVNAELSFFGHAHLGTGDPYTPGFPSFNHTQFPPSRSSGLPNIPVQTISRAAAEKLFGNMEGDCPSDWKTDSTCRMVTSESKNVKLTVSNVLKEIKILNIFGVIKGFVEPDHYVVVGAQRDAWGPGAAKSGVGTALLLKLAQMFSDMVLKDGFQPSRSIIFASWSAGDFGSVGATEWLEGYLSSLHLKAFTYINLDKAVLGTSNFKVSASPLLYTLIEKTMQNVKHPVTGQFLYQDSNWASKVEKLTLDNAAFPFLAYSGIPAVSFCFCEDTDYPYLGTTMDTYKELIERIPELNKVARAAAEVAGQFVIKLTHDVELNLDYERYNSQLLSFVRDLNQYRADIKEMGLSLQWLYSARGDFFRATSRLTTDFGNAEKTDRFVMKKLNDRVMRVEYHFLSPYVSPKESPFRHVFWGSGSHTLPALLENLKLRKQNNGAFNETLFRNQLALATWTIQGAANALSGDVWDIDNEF

Tests used:
[1] = molecular target: T1, cell-surface transferrin receptors on K562 cells (Homo sapiens, UniProt P02786); assay: Receptor binding radioassay of labelled transferrin conjugates on K562 cells; details: K562 cells (5×10^5), 10.3 nM, 90 minutes at 4° C.; 1-3 iodoHoechst moieties per transferrin
T1 construct: endogenous in cells; host or cells: K562 cells (intact, washed)
Text: An important requirement of immunoconjugates is that the protein moieties of the conjugates retain the binding affinity and specificity of the unmodified proteins for their respective cell-surface receptors or antigens. The binding characteristics of the meta-^127I/^125I-iodoHoechst-transferrin conjugates were compared to the binding characteristics of ^125I-transferrin to cell-surface transferrin receptors using receptor binding radioassays. For investigation of the binding of ^125I-transferrin and meta-^127I/^125I-iodoHoechst-transferrin conjugates, K562 cells were washed three times with 1% BSA/PBS. A 100 μl aliquot of 1% BSA/PBS or 100 μl of 1% BSA/PBS containing unlabelled human diferric transferrin (100-fold molar excess to ^125I-transferrin and meta-^127I/^125I-iodoHoechst-transferrin conjugates, for estimation of non-specific binding) was added to cells (5×10^5) in 200 μl 1% BSA/PBS. A 200 μl aliquot of ^125I-transferrin or meta-^127I/^125I-iodoHoechst-transferrin conjugates was added to appropriate samples. The samples were incubated for 90 minutes at 4° C. and the cell-surface bound and free ^125I-labelled ligands were separated by centrifugation at 10000×g for 3 minutes through a 50% dibutyl pthalate/50% dioctyl phthalate oil-layer (density 1.012 g/l) and the ^125I-activity in the cell pellets was determined in a β-counter.

[2] = molecular target: T1, cell-surface transferrin receptors on K562 cells; assay: Competition by unlabelled conjugates for ^125I-transferrin binding sites on K562 cells; details: vs 3 nM ^125I-diferric transferrin, 0° C. for 90 minutes, one-site competition model, read-out: equilibrium inhibition constant
Description: The characteristics of binding of the meta-^127I/^125I-iodoHoechst-transferrin conjugates to cell-surface transferrin receptors on K562 cells were also analysed by competition binding experiments (competition by unlabelled conjugates for ^125I-transferrin binding sites). K562 cells were washed three times with ice-cold 1% (w/v) bovine serum albumin (BSA) in serum-free RPMI 1640 medium containing 20 mM 4-(-2-hydroxyethyl)-1-piperazineethanesulfonic acid (HEPES), pH 7.4 and 80 I.U./ml gentamicin (RPMI 1640/BSA). Cell pellets (5×10^5 per sample) were suspended in 50 μl of assay buffer (200 mM Tris-HCl, 150 mM NaCl, pH 7.4, for estimation of total binding) containing a series of concentrations (0-500 nM) of the meta-^127I-iodoHoechst-transferrin conjugates (competing ligand; conjugation number 1.2, 1.1 and 2.9 for the disulphide, acylhydrazone and amide linked conjugates, respectively) was added to the K562 cells. This was followed by addition of a 50 μl aliquot of ^125I-diferric transferrin (3 nM final concentration; specific activity 30.5 Ci/mmole). The samples were incubated at 0° C. for 90 minutes and the cell-surface bound and free ^125I-diferric transferrin was separated by centrifugation at 10000×g for 3 minutes through a mineral oil-layer as described above. Following excision of the tips of the tubes or removal of the supernatant and most of the mineral oil, the ^125I-activity in the cell-pellets was counted in a β-counter. To correct for non-specific binding, assays were performed in parallel in the presence of a 50-fold molar excess of unlabelled diferric transferrin. Specific ^125I-diferric transferrin binding was represented by the difference of the total and non-specific binding. Control assays, in which the unconjugated meta-^127I-iodoHoechst analogue, at an equivalent concentration to the concentration of bisbenzimidazole moiety in the meta-^127I-iodoHoechst-transferrin conjugates was used as the competing ligand, were also performed. […]
The data derived from the competition binding studies were analyzed using a one-site competition model. […]

| Substance | binding retained relative to unconjugated ^125I-transferrin to specific receptors [1] | Ki [2] [nM] |
| --- | --- | --- |
| acylhydrazone linked meta-^127I/^125I-iodoHoechst-transferrin conjugate: meta-^127I/^125I-iodoHoechst conjugated to thiolated transferrin via an acylhydrazone linkage (Example 15, FIG. 3) | ~93% | 3.9 ± 0.9 |
| amide linked meta-^127I/^125I-iodoHoechst-transferrin conjugate: meta-^127I/^125I-iodoHoechst conjugated to transferrin via an amide linkage (Example 16, FIG. 4) | approximately 98% | 3.1 ± 1.1 |
| disulphide linked meta-^127I/^125I-iodoHoechst-transferrin conjugate: meta-^127I/^125I-iodoHoechst conjugated to thiolated transferrin via a disulphide linkage (Example 14, FIG. 2) | ~88% | 4.8 ± 1.3 |
